The text below walks through data of ChEMBL document CHEMBL1687782, “High-resolution crystal structure of the subclass B3 metallo-beta-lactamase BJP-1: rational basis for substrate specificity and interaction with sulfonamides” (Antimicrob Agents Chemother, 2010).

For assay [1], the system named is Stenotrophomonas maltophilia. The assay is described as follows: Ratio of Kcat to Km for Stenotrophomonas maltophilia 1SML metallo-beta-lactamase L1.
For assay [2], the system named is Bradyrhizobium japonicum. The assay is described as follows: Activity at Bradyrhizobium japonicum metallo-beta-lactamase BJP-1.
Assay [3] relates to Bradyrhizobium japonicum. Description: Ratio of Kcat to Km for Bradyrhizobium japonicum metallo-beta-lactamase BJP-1.
The subject of assay [4] is Stenotrophomonas maltophilia. Description: Activity at Stenotrophomonas maltophilia 1SML metallo-beta-lactamase L1.

Structures are written as SMILES.

As for `CC(C)(O/N=C(\C(=O)N[C@@H]1C(=O)N2C(C(=O)[O-])=C(C[n+]3ccccc3)CS[C@H]12)c1csc(N)n1)C(=O)O`, the kcat/Km in assay [1] worked out at 2 ×10⁵ /M/s; in assay [3], 4.3 ×10³ /M/s. Also, the Km is greater than 700 µM in assay [2] and 145 µM in assay [4].
In the case of `C[C@@H](O)[C@H]1C(=O)N2C(C(=O)O)=C(S[C@@H]3CN[C@H](C(=O)N(C)C)C3)[C@H](C)[C@H]12`, the kcat/Km in assay [1] is 4.5 ×10⁶ /M/s; in assay [3] it was 8.3 ×10⁵ /M/s. Further, the Km in assay [2] was found to be 190 µM; in assay [4], 10 µM.
The corresponding values for `CC(=O)OCC1=C(C(=O)O)N2C(=O)[C@@H](NC(=O)Cc3cccs3)[C@H]2SC1` are 9.2 ×10⁶ /M/s, 5.8 ×10⁵ /M/s, 230 µM and 8.9 µM.

As a reminder, the Km is the substrate concentration at which the rate is half of its maximum.
